Test results as given in BindingDB's records for doi:10.1021/jm970815r (Eisai, 1998).

Test: Inhibition of Phosphodiesterase 5 from porcine platelets

`O=C(O)C1CCN(c2nc(NCc3ccc4c(c3)OCO4)c3cc(Cl)ccc3n2)CC1` [Sodium; 1-{4-[(benzo[1,3]dioxol-5-ylmethyl)-amino]-6-chloro-quinazolin-2-yl}-piperidine-4-carboxylate] showed an IC50 of 8.6 nM.
